Data on one compound can be found in patent US7959916B2, “Negative immunomodulation of immune responses by ERp5” (Fred Hutchinson Cancer Research Center, priority 2007, dated 2011).

The assay concerns surface expression of MICA. The following applies: tumor lines exposed to DTNB or PAO at titered non-toxic concentrations.

For the compound `O=[As]c1ccccc1` (stereo not shown), the “surface expression of MICA” value was “without affecting surface expression of MICA”.
